Chains of the proteins cited; added tags and fusions are not shown. Lines headed by an entry give the natural chain unless they say otherwise; changes in a name come on top.
UniProt O42275: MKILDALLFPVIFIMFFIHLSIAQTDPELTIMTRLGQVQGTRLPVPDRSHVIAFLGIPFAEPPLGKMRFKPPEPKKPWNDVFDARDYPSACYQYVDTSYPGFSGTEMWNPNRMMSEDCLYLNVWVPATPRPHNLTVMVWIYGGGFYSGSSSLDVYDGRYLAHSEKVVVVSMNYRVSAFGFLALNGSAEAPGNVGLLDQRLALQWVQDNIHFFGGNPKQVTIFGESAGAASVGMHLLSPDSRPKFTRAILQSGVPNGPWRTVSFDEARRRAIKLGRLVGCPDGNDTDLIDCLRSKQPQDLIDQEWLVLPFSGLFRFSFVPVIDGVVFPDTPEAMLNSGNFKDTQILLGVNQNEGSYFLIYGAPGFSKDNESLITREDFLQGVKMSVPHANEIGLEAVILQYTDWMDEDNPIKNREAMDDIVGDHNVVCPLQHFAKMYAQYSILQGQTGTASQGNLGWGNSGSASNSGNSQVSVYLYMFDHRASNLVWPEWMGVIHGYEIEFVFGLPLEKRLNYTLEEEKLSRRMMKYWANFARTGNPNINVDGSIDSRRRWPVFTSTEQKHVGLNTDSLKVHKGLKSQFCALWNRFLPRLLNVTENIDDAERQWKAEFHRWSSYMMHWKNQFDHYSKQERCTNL

The compounds below were run against Acetylcholinesterase (Electrophorus electricus) (UniProt O42275) (assay: Reactivation of paraoxon-inhibited electric eel AChE assessed as residual activity at 1 uM using acetylthiocholine iodide as substrate preincubated for 30 mins followed by substrate addition and measured every 3 mins for 15 mins relative to control).
`NC(=O)c1cc[n+](COC[n+]2ccccc2/C=N/O)cc1` was tested, and the Activity was 4%. Compound `O/N=C/c1cc[n+](CCCCCNc2c3c(nc4ccccc24)CCCC3)cc1` has an Activity of 41%. `O/N=C/c1cc[n+](CCCCNc2c3c(nc4ccccc24)CCCC3)cc1` showed an Activity of 41%.
